From PubChem BioAssay AID651711 (Broad Institute, 2012)
Only a part is listed here, and it is no random draw. Some tests of the compounds listed are not included; inactive here does not mean inactive elsewhere. The source made the active and inactive calls.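 How the source made its calls: active means mean replicate inhibition above about 25%, with every replicate also reaching it (limit read from the data, passing the limit was not always enough); inconclusive means only one of those two criteria met; inactive means neither criterion met.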

The chains behind the UniProt entries cited, without tags or fusion partners.
UniProt Q15084, whole entry: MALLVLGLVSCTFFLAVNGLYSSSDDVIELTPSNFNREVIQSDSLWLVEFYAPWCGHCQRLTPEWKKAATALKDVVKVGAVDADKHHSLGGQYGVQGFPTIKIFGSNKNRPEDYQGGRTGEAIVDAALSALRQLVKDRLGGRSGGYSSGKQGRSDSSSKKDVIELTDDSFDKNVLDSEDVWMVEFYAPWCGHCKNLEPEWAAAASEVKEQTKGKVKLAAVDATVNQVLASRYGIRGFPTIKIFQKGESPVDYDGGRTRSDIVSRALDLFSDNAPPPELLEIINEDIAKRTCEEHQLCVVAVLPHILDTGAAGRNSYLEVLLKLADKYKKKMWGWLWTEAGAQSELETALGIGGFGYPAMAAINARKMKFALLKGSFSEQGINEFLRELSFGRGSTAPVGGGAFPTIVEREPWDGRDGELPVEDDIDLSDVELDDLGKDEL

The compounds below were run against Protein disulfide-isomerase A6 (Homo sapiens) (UniProt Q15084) (assay: ERp5 (PDIA6) reductase activity blockers – biochemical, turbidity, absorbance 650 nm, single point, primary screen (AID 651711)). Conditions: ERp5 insulin aggregation, 90 min, at 9.99 µM, stronger effect = higher value.

Row | SMILES | inhibition
1 | COc1cc(C(=O)NCC2(N(C)C)CCCCC2)c([N+](=O)[O-])cc1OC | inactive: 2.68%
2 | CN(C)C1(CNC(=O)c2ccc(Br)cc2)CCCCC1 | inactive: 2.99%
3 | O=C(NCC1(N2CCCCC2)CCCCC1)c1cccc(Cl)c1 | inactive: -0.658%
4 | COc1cccc(C(=O)NCC2(N3CCCCC3)CCCCC2)c1 | inactive: 2.36%
5 | COc1ccc(Cl)cc1C(=O)NCC1(N(C)C)CCCCC1 | inactive: -2.5%
6 | CC(C)Oc1ccc(C(=O)NCC2(N(C)C)CCCCC2)cc1 | inactive: -0.491%
7 | O=C(OCCN1CCCC1)C(O)(c1ccccc1)c1ccccc1 | inactive: 9.42%
8 | COc1ccc(Br)c(C(=O)NCC2(N3CCCCC3)CCCCC2)c1 | inactive: 0.82%
9 | C=C(C)C#CC(O)(C(=O)OC1CCN(C)CC1)c1ccccc1 (configuration not stated) | inactive: -5.4%
10 | CN1[C@@H]2CC[C@H]1CC(OC(=O)C(O)(c1ccccc1)c1ccccc1)C2 (some centres not stated) | inactive: 0.972%
11 | O=C(NCC1(N2CCCCC2)CCCCC1)c1cc([N+](=O)[O-])ccc1Cl | inactive: -4.43%
12 | Cc1ccc(C(=O)NCC2(N3CCCCC3)CCCCC2)cc1 | inactive: 0.336%
13 | CCN(CC)CC(C)C(C)OC(=O)C(O)(c1ccccc1)c1ccccc1 (configuration not stated) | inactive: 4.7%
14 | COc1cc(SC)ccc1C(=O)NCC1(N(C)C)CCCCC1 | inactive: 1.28%
15 | Cc1ccccc1C(=O)NCC1(N2CCCCC2)CCCCC1 | inactive: -3.81%
16 | CN(C)C1CCCC1OC(=O)C(O)(c1ccccc1)c1ccccc1 (configuration not stated) | inactive: -1.54%
17 | CN(C)c1ccc(C(=O)NCC2(N(C)C)CCCCC2)cc1 | inactive: 1.28%
18 | Cc1cc(C(=O)NCC2(N3CCCCC3)CCCCC2)ccc1[N+](=O)[O-] | inactive: -0.975%
19 | O=C(NCC1(N2CCCCC2)CCCCC1)c1cccc(Br)c1 | inactive: 6.85%
20 | COc1ccc(C(=O)NCC2(N(C)C)CCCCC2)cc1 | inactive: 3.7%
21 | C=CCN1CCN(CCOC(=O)C(O)(c2ccccc2)c2ccccc2)CC1 | inactive: -5.47%
22 | O=C(NCC1(N2CCCCC2)CCCCC1)c1cc(F)c(F)cc1Cl | inactive: -0.967%
